Results: PubChem BioAssay AID588382 (National Center for Advancing Translational Sciences (NCATS), 2011)
The entries are a selection whose mix differs from that of the whole data set. Results filed as inconclusive are left out. Active and inactive are the calls of the source. Calls come from the whole dose curve; as a rule, active = well fitted cell-killing curve with a large enough effect; inconclusive = small, poorly fitted or top-dose-only effect, or effect the other way; inactive = flat fitted curve, though single readings scatter.

Experiment: qHTS of small molecules that selectively kill Giardia lamblia: Hit Validation in HepG2 cytotox;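 note: compound exposure lasted overnight at 37 deg C; nearly all actives have a fitted effect of over 55% in size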
Conditions: HepG2 cytotoxicity, cell viability
Excerpt: Giardia lamblia is a human pathogen afflicting impoverished nations, and the most common cause of outbreaks of diarrhea in the United States. Giardia has been classified by the CDC as a category B bioterrorism organism. The favored anti giardiasis drugs in the US are metronidazole or tinidazole, compounds that have undesirable side effects. Moreover, increasing resistance to drug regimes and recurrence are a concern. It is thus clear that alternative drug treatments are needed.
In a collaboration between the University of Maryland, College Park and the NIH Chemical Genomics Center, a bioluminescence Giardia viability assay based on the trophozoites' ATP content was developed. This assay is suitable for high throughput screening, and miniaturized the assay for compound screening in 1536-well plates. The goal of the project is to screen the Molecular Libraries Small Molecule Repository (MLSMR) for compounds that selectively kill Giardia trophozoites. This counterscreen looks at the toxicity of the compounds against the human HepG2 cell line.
NIH Chemical Genomics Center [NCGC]
NIH Molecular Libraries Probe Centers Network [MLPCN]
Assay Submitter (PI): Osnat Herzberg, University of Maryland, College Park, MD.
4 uL of HepG2 cells ae dispensed into white 1536-well plates. They are incubated overnight at 37 deg C and then 23 nL of compounds are transferred to the wells with a pintool. Plates are incubated overnight at 37 deg C. 2 uL of ATPLite is added and the plates are incubated for 15 min at room temperature before they are read on the ViewLux for luminiescence.
Potency is the fitted concentration of half-maximal effect.

Compound	Potency
CC1=CC2OC3CC4OC(=O)C=CC=CC(=O)OCCC(C)C(O)C(=O)OCC2(CC1O)C4(C)C31CO1 (stereo not drawn)	active: 0.104 µM
O=[N+]([O-])c1cc([N+](=O)[O-])c(Nc2ccccn2)c([N+](=O)[O-])c1	active: 9.27 µM
O=[N+]([O-])c1cc([N+](=O)[O-])c(Nc2cccnc2)c([N+](=O)[O-])c1	active: 13.1 µM
